Molecular target: T1, NF-κB p50 (Homo sapiens, UniProt P19838)
T1 sequence (P19838 1-433 limits assumed): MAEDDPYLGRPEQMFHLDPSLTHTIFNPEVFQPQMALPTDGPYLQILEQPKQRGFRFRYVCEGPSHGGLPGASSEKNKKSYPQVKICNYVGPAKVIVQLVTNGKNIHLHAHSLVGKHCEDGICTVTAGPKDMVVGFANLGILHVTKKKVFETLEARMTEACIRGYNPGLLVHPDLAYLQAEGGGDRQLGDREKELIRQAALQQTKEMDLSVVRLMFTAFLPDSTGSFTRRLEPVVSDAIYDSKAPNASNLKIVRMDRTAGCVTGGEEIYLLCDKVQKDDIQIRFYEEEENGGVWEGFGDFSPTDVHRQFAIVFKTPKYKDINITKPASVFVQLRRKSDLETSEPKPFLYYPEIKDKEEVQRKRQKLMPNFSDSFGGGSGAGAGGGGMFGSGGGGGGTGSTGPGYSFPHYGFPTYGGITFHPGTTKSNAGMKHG
Assay: Enzyme-based ELISA NF-κB p50 assay
Format: biochemical

## COc1ccc([C@@]23Oc4cc(OC)cc(OC)c4[C@]2(O)[C@H](O)[C@H](C(=O)N(C)C)[C@H]3c2ccccc2)cc1 [rocaglamide, reference compound]
  IC50: 4 µM

Reference: publication PMC2878397 (Journal of natural products, 2010)
